Assay results reported in article PMC4772718 (Bioconjugate chemistry, 2015).

By UniProt entry, the sequences of proteins in these tests, tags left out. Residues count along the entry.
UniProt Q06187, 2-659: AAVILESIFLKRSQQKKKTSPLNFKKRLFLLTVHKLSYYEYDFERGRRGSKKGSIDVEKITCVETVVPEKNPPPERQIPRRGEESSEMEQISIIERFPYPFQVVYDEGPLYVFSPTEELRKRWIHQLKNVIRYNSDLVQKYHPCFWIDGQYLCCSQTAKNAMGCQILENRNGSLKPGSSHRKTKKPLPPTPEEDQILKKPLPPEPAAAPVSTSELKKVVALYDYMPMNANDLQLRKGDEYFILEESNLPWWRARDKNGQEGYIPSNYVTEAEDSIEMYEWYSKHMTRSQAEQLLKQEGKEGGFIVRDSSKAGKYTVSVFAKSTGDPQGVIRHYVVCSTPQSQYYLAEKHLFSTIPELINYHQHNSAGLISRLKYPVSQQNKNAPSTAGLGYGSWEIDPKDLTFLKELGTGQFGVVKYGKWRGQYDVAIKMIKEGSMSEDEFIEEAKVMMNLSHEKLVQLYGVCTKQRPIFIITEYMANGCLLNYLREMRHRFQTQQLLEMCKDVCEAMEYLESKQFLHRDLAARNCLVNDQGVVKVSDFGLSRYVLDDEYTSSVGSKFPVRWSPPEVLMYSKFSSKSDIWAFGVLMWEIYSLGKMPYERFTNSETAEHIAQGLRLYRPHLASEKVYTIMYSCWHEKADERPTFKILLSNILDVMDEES

Biological target: Bruton's tyrosine kinase (Btk) (Homo sapiens, UniProt Q06187)

Ibrutinib-SiR-COOH
IC50: 123 nM
